The values that follow come from patent US9302989B2 (priority 2010, dated 2016).

Sequences of proteins named here, by UniProt entry; tags and fusion partners are left off. A change or cut given only in a name is not applied to a line headed by its entry.
UniProt P43490: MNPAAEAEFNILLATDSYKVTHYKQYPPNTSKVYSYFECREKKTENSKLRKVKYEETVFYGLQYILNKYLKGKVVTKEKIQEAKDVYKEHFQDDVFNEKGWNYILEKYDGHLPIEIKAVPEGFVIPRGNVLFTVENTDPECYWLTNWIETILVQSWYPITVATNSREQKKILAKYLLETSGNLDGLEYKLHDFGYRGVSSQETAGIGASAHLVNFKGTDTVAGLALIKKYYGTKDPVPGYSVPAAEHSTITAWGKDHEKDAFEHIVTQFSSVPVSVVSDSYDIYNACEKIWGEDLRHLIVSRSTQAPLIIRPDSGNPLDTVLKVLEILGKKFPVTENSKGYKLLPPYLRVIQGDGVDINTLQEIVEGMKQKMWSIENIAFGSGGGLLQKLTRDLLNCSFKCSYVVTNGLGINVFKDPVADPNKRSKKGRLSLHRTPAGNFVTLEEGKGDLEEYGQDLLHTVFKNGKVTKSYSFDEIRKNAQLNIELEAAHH

In this test the target is NAMPT (Homo sapiens (Human), UniProt P43490). The settings on record: read-out: TR-FRET Binding IC50 (μM) probe 1.
Regarding `C[C@H](O)CNC(=O)c1ccc(NC(=O)N2Cc3ccccc3C2)cc1` [Example 172, N-(4-{[(2S)-2-hydroxypropyl]carbamoyl}phenyl)-1,3-dihydro-2H-isoindole-2-carboxamide], the IC50 amounted to 0.111 µM. The figure for `O=C(Nc1ccc(N2CCN(C(=O)c3ccncc3)CC2)cc1)N1Cc2ccccc2C1` [Example 531, N-[4-(4-isonicotinoylpiperazin-1-yl)phenyl]-1,3-dihydro-2H-isoindole-2-carboxamide] is 0.159 µM. Consider `O=C(NCc1ccc2c(c1)OCO2)c1ccc(NC(=O)N2Cc3ccccc3C2)cc1` [Example 70, N-{4-[(1,3-benzodioxol-5-ylmethyl)carbamoyl]phenyl}-1,3-dihydro-2H-isoindole-2-carboxamide], for which the IC50 turned out to be 0.0248 µM. The figure for `O=C(Nc1ccc(C(=O)N2CCN(c3ccccn3)CC2)cc1)N1Cc2ccc(F)cc2C1` [Example 22, 5-fluoro-N-(4-{[4-(pyridin-2-yl)piperazin-1-yl]carbonyl}phenyl)-1,3-dihydro-2H-isoindole-2-carboxamide] is 0.0116 µM; for `Nc1ccccc1NC(=O)c1ccc(NC(=O)N2Cc3ccccc3C2)cc1` [Example 192, N-{4-[(2-aminophenyl)carbamoyl]phenyl}-1,3-dihydro-2H-isoindole-2-carboxamide] it is 0.155 µM. In the case of `O=C(NCCCc1ccccc1)N1Cc2ccccc2C1` [Example 357, N-(3-phenylpropyl)-1,3-dihydro-2H-isoindole-2-carboxamide] it was 9.88 µM. In the case of `O=C(CCCc1cccs1)Nc1ccc(NC(=O)N2Cc3ccccc3C2)cc1` [Example 299, N-(4-{[4-(2-thienyl)butanoyl]amino}phenyl)-1,3-dihydro-2H-isoindole-2-carboxamide], the IC50 came out at 0.00673 µM. The figure for `O=C(Nc1ccc(C(=O)N2CCN(c3cccnn3)CC2)cc1)N1Cc2ccccc2C1` [Example 74, N-(4-{[4-(pyridazin-3-yl)piperazin-1-yl]carbonyl}phenyl)-1,3-dihydro-2H-isoindole-2-carboxamide] is 0.0273 µM. On to `CC(C)CN(C)C(=O)c1ccc(NC(=O)N2Cc3ccccc3C2)cc1` [Example 247, N-{4-[isobutyl(methyl)carbamoyl]phenyl}-1,3-dihydro-2H-isoindole-2-carboxamide], for which the IC50 came out at 0.624 µM.

For the molecule `O=C(NC1CCN(c2ccc(NC(=O)N3Cc4ccccc4C3)cc2)C1)c1ccccc1` (centres unmarked) [Example 339, N-{4-[3-(benzoylamino)pyrrolidin-1-yl]phenyl}-1,3-dihydro-2H-isoindole-2-carboxamide], the IC50 is 0.315 µM. In the case of `O=C(Nc1ccc(C2=CCN(C(=O)c3ccccc3)CC2)cc1)N1Cc2ccccc2C1` [Example 332, N-[4-(1-benzoyl-1,2,3,6-tetrahydropyridin-4-yl)phenyl]-1,3-dihydro-2H-isoindole-2-carboxamide] it was 0.0042 µM. With `O=C(Nc1ccc(-c2cnn(Cc3ccccc3)c2)cc1)N1Cc2ccccc2C1` [Example 323, N-[4-(1-benzyl-1H-pyrazol-4-yl)phenyl]-1,3-dihydro-2H-isoindole-2-carboxamide], the IC50 was found to be 0.0988 µM. As for `CCCCNC(=O)c1ccc(NC(=O)N2Cc3ccccc3C2)cc1` [Example 123, N-[4-(butylcarbamoyl)phenyl]-1,3-dihydro-2H-isoindole-2-carboxamide], the IC50 is 0.0515 µM. In the case of `O=C(Nc1ccc(N2CCN(S(=O)(=O)c3ccccc3)CC2)cc1)N1Cc2ccccc2C1` [Example 338, N-{4-[4-(phenylsulfonyl)piperazin-1-yl]phenyl}-1,3-dihydro-2H-isoindole-2-carboxamide] it was 0.0785 µM.

As for `CC(C)n1cc(NC(=O)c2ccc(NC(=O)N3Cc4ccccc4C3)cc2)cn1` [Example 154, N-{4-[(1-isopropyl-1H-pyrazol-4-yl)carbamoyl]phenyl}-1,3-dihydro-2H-isoindole-2-carboxamide], the IC50 came out at 0.0813 µM. In the case of `O=C(Nc1ccc(N2CCN(C(=O)c3ccncn3)CC2)cc1)N1Cc2ccccc2C1` [Example 534, N-{4-[4-(pyrimidin-4-ylcarbonyl)piperazin-1-yl]phenyl}-1,3-dihydro-2H-isoindole-2-carboxamide] it was 0.14 µM. In the case of `COc1ccc(CNC(=O)c2ccc(NC(=O)N3Cc4ccccc4C3)cc2)cc1` [Example 45, N-{4-[(4-methoxybenzyl)carbamoyl]phenyl}-1,3-dihydro-2H-isoindole-2-carboxamide] it was 0.0181 µM. In the case of `O=C(NCCc1cccs1)c1ccc(NC(=O)N2Cc3ccccc3C2)cc1` [Example 68, N-(4-{[2-(2-thienyl)ethyl]carbamoyl}phenyl)-1,3-dihydro-2H-isoindole-2-carboxamide] it was 0.0247 µM; in that of `O=C(Nc1ccc(O)cc1)c1ccc(NC(=O)N2Cc3ccccc3C2)cc1` [Example 155, N-{4-[(4-hydroxyphenyl)carbamoyl]phenyl}-1,3-dihydro-2H-isoindole-2-carboxamide], 0.0834 µM; in that of `O=C(NCCCc1ccccc1)c1ccc(NC(=O)N2Cc3ccc(C(F)(F)F)cc3C2)cc1` [Example 151, N-{4-[(3-phenylpropyl)carbamoyl]phenyl}-5-(trifluoromethyl)-1,3-dihydro-2H-isoindole-2-carboxamide], 0.0733 µM. Take `O=C(NCCc1ccc(Cl)cc1)c1ccc(NC(=O)N2Cc3ccccc3C2)cc1` [Example 177, N-(4-{[2-(4-chlorophenyl)ethyl]carbamoyl}phenyl)-1,3-dihydro-2H-isoindole-2-carboxamide]: the IC50 came out at 0.123 µM.

Take `CC(C)CCn1cc(NC(=O)c2ccc(NC(=O)N3Cc4ccc(F)cc4C3)cc2)cn1` [Example 17, 5-fluoro-N-(4-{[1-(3-methylbutyl)-1H-pyrazol-4-yl]carbamoyl}phenyl)-1,3-dihydro-2H-isoindole-2-carboxamide]: the IC50 is 0.0105 µM.

As for `O=C(Nc1ccc(C2=CCNCC2)cc1)N1Cc2ccccc2C1` [Example 318, N-[4-(1,2,3,6-tetrahydropyridin-4-yl)phenyl]-1,3-dihydro-2H-isoindole-2-carboxamide], the IC50 is 0.249 µM.

As to `COc1ccc2[nH]cc(CCNC(=O)c3ccc(NC(=O)N4Cc5ccccc5C4)cc3)c2c1` [Example 103, N-(4-{[2-(5-methoxy-1H-indol-3-yl)ethyl]carbamoyl}phenyl)-1,3-dihydro-2H-isoindole-2-carboxamide], the IC50 came out at 0.0395 µM. For `O=C(NC1CCCC1)c1ccc(NC(=O)N2Cc3ccccc3C2)cc1` [Example 224, N-[4-(cyclopentylcarbamoyl)phenyl]-1,3-dihydro-2H-isoindole-2-carboxamide], the IC50 was found to be 0.317 µM. In the case of `O=C(Nc1ccc(C(=O)N2CCN(CC3CCOC3)CC2)cc1)N1Cc2ccccc2C1` (centres unmarked) [Example 434, N-(4-{[4-(tetrahydrofuran-3-ylmethyl)piperazin-1-yl]carbonyl}phenyl)-1,3-dihydro-2H-isoindole-2-carboxamide] it was 0.0507 µM; in that of `COc1ccc(NC(=O)c2ccc(NC(=O)N3Cc4ccccc4C3)cc2)cc1F` [Example 117, N-{4-[(3-fluoro-4-methoxyphenyl)carbamoyl]phenyl}-1,3-dihydro-2H-isoindole-2-carboxamide], 0.0481 µM. Consider `CC1CCCCN1C(=O)c1ccc(NC(=O)N2Cc3ccccc3C2)cc1` (centres unmarked) [Example 219, N-{4-[(2-methylpiperidin-1-yl)carbonyl]phenyl}-1,3-dihydro-2H-isoindole-2-carboxamide], for which the IC50 was 0.284 µM.

`CC(C)CCN(C)C(=O)c1ccc(NC(=O)N2Cc3ccccc3C2)cc1` [Example 208, N-{4-[methyl(3-methylbutyl)carbamoyl]phenyl}-1,3-dihydro-2H-isoindole-2-carboxamide]: the IC50 worked out at 0.223 µM. In the case of `O=C(Nc1ccc(C(=O)N2CCN(c3cccnc3)CC2)cc1)N1Cc2ccccc2C1` [Example 72, N-(4-{[4-(pyridin-3-yl)piperazin-1-yl]carbonyl}phenyl)-1,3-dihydro-2H-isoindole-2-carboxamide] it was 0.0258 µM; in that of `CCC(C)C(=O)N1CC=C(c2ccc(NC(=O)N3Cc4ccccc4C3)cc2)CC1` (centres unmarked) [Example 459, N-{4-[1-(2-methylbutanoyl)-1,2,3,6-tetrahydropyridin-4-yl]phenyl}-1,3-dihydro-2H-isoindole-2-carboxamide], 0.00362 µM; in that of `CS(=O)(=O)c1ccc(C(=O)N2CCN(c3ccc(NC(=O)N4Cc5ccccc5C4)cc3)CC2)cc1` [Example 502, N-(4-{4-[4-(methylsulfonyl)benzoyl]piperazin-1-yl}phenyl)-1,3-dihydro-2H-isoindole-2-carboxamide], 0.157 µM.

For `CCOCCC(=O)Nc1ccc(NC(=O)N2Cc3ccccc3C2)cc1` [Example 292, N-{4-[(3-ethoxypropanoyl)amino]phenyl}-1,3-dihydro-2H-isoindole-2-carboxamide], the IC50 worked out at 0.0361 µM. Take `CC(C)(C)OC(=O)N1CCN(c2nc3ccc(NC(=O)N4Cc5ccccc5C4)cc3[nH]2)CC1` [Example 422, tert-butyl 4-{6-[(1,3-dihydro-2H-isoindol-2-ylcarbonyl)amino]-1H-benzimidazol-2-yl}piperazine-1-carboxylate]: the IC50 amounted to 3.94 µM. The figure for `O=C(Nc1ccc(/C=N/OCc2ccccc2)cc1)N1Cc2ccccc2C1` [Example 566, N-(4-{(E)-[(benzyloxy)imino]methyl}phenyl)-1,3-dihydro-2H-isoindole-2-carboxamide] is 0.193 µM; for `O=C(Nc1ccc(C2=CCN(Cc3ccccc3)CC2)cc1)N1Cc2ccccc2C1` [Example 433, N-[4-(1-benzyl-1,2,3,6-tetrahydropyridin-4-yl)phenyl]-1,3-dihydro-2H-isoindole-2-carboxamide] it is 0.00807 µM.

Take `O=C(Nc1ccc(-c2n[nH]c(=O)c3c2CCCC3)cc1)N1Cc2ccccc2C1` [Example 377, N-[4-(4-oxo-3,4,5,6,7,8-hexahydrophthalazin-1-yl)phenyl]-1,3-dihydro-2H-isoindole-2-carboxamide]: the IC50 came out at 0.105 µM. The figure for `CCCC(=O)N1CCC(c2ccc(NC(=O)N3Cc4ccccc4C3)cc2)CC1` [Example 405, N-[4-(1-butyrylpiperidin-4-yl)phenyl]-1,3-dihydro-2H-isoindole-2-carboxamide] is 0.012 µM.
